The pIC50 is the negative decadic logarithm of the IC50, by convention in mol/L. Read a low pIC50 as a large IC50. Broadly, the IC50 is the concentration needed to halve the response being measured.

Protein sequences, listed by entry. Tags and fused reporters are not part of them. Lines headed by an entry give the natural chain unless they say otherwise; changes in a name come on top.
UniProt Q9UBN7: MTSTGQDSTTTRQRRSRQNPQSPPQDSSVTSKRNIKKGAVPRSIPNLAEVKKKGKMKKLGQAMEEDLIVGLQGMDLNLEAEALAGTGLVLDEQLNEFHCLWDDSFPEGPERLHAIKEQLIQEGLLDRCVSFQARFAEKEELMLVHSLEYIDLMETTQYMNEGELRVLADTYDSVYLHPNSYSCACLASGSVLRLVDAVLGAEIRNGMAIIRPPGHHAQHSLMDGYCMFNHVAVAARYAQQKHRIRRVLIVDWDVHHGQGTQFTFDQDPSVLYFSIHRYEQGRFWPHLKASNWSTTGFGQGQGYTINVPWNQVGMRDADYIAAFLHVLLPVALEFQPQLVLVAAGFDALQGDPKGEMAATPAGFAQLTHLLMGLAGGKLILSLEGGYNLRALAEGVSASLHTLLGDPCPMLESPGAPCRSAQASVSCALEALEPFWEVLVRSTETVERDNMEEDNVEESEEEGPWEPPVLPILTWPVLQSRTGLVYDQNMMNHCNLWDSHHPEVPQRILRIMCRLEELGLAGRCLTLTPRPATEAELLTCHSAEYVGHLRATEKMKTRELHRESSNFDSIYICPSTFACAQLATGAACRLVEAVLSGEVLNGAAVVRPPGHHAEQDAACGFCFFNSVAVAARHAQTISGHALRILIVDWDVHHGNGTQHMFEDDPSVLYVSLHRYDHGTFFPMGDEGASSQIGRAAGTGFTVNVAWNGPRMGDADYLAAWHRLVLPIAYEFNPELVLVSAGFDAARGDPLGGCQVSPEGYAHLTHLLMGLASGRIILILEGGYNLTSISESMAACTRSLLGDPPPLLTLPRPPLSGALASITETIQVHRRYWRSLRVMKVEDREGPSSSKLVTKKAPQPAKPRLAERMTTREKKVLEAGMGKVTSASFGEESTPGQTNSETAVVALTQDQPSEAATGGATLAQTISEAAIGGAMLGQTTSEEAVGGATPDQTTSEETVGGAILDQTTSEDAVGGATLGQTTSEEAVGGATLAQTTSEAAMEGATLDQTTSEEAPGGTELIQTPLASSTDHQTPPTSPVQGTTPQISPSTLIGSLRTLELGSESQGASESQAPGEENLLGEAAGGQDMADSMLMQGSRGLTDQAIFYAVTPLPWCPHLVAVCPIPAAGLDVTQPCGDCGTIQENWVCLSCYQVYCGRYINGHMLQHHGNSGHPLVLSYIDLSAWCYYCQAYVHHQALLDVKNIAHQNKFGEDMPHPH

pIC50: −log10 of the molar value.

One assay concerns the target HDAC6 (Homo sapiens (Human), UniProt Q9UBN7). Description: HDAC enzyme assay, HDAC6.
Conditions: not given
`CCN(c1ccc(C(=O)N(C)CCCCCCC(=O)NO)cc1)c1ccccc1C(F)(F)F` [4-(ethyl(2-(trifluoromethyl)phenyl)amino)-N-(7-(hydroxyamino)-7-oxoheptyl)-N-methylbenzamide] showed a pIC50 of 7.41.

Staying with this assay, now noted: read-out: IC50(nM) HDAC6; 2 ng/ml enzyme, 14 μM tripeptide substrate.
For the compound `O=C(CCCCCCNC(=O)c1cnc(N2CCC[C@@H](O)C2)nc1)NO` [(R)-N-(7-(hydroxyamino)-7-oxoheptyl)-2-(3-hydroxypiperidin-1-yl)pyrimidine-5-carboxamide], the IC50 came out at 7 nM.
As for `CCOC(c1ccc(C(=O)N(C)CCCCCCC(=O)NO)cc1)(c1ccccn1)c1ccccn1` [4-(ethoxydipyridin-2-ylmethyl)-N-(7-(hydroxyamino)-7-oxoheptyl)-N-methylbenzamide], the IC50 is 45 nM.
Take `Cc1cccc(C)c1Nc1ccc(C(=O)N(C)CCCCC(=O)NO)cc1` [4-(2,6-dimethylphenylamino)-N-(5-(hydroxyamino)-5-oxopentyl)-N-methylbenzamide]: the IC50 was 363 nM.
For `COC(c1ccccc1)(c1ccncc1)c1ccc(C(=O)NCCCCCCC(=O)NO)cc1` (centres unmarked) [N-(7-(hydroxyamino)-7-oxoheptyl)-4-(methoxy(phenyl)(pyridin-4-yl)methyl)benzamide], the IC50 was determined as 3 nM.
For the compound `CCOC(c1ccc(C(=O)NCCCCCCC(=O)NO)cc1)(c1ccccn1)c1ccccn1` [4-(ethoxydipyridin-2-ylmethyl)-N-(7-(hydroxyamino)-7-oxoheptyl)benzamide], the IC50 came to 6 nM.
For `CN(CCCCCCC(=O)NO)C(=O)c1ccc(C(O)(c2ccc(F)cc2F)c2ccc(F)cc2F)cc1` [4-(bis(2,4-difluorophenyl)(hydroxy)methyl)-N-(7-(hydroxyamino)-7-oxoheptyl)-N-methylbenzamide], the IC50 turned out to be 13 nM.
On the same count and under the same terms, as for `O=C(CCCCCCNC(=O)c1ccc(N(c2ccccc2)c2ccccc2)cc1)NO` [4-(diphenylamino)-N-(7-(hydroxyamino)-7-oxoheptyl)benzamide], the figure is 18 nM.
`O=C(CCCCCCNC(=O)c1cnc(N2CCOC(CO)C2)nc1)NO` (centres unmarked) [N-(7-(hydroxyamino)-7-oxoheptyl)-2-(2-(hydroxymethyl)morpholino)pyrimidine-5-carboxamide]: the IC50 was 7 nM.
Take `O=C(CCCCCCNC(=O)c1ccc(C(c2ccccc2)c2ccccc2)cc1)NO` [4-benzhydryl-N-(7-(hydroxyamino)-7-oxoheptyl)benzamide]: the IC50 was found to be 22 nM.
Regarding `COC(c1ccccc1)(c1ccc(C(=O)NCCCCCCC(=O)NO)cc1)c1cccc(C(=O)N(C)C)c1` (centres unmarked) [3-((4-(7-(hydroxyamino)-7-oxoheptylcarbamoyl)phenyl)(methoxy)(phenyl)methyl)-N,N-dimethylbenzamide], the IC50 stood at 3 nM.
Consider `COC(c1ccccc1)(c1ccc(C(=O)NCCCCCCC(=O)NO)cc1)c1ccc(C(=O)N(C)C)cc1` (centres unmarked) [4-((4-(7-(hydroxyamino)-7-oxoheptylcarbamoyl)phenyl)(methoxy)(phenyl)methyl)-N,N-dimethylbenzamide], for which the IC50 stood at 4 nM.
As for `CN(CCCCCCC(=O)NO)C(=O)c1ccc(C(c2ccccc2)c2ccccc2)cc1` [4-benzhydryl-N-(7-(hydroxyamino)-7-oxoheptyl)-N-methylbenzamide], the IC50 is 47 nM.
Still for that read-out and setting: with `CN(CCCCCCC(=O)NO)C(=O)c1ccc(C(C)(O)c2ccc(F)cc2)cc1` (centres unmarked) [4-(1-(4-fluorophenyl)-1-hydroxyethyl)-N-(7-(hydroxyamino)-7-oxoheptyl)-N-methyl benzamide] the figure was 23 nM; with `O=C(CCCCCCNC(=O)c1ccc(C(O)(c2ccc(F)cc2)c2ccc(F)cc2)cc1)NO` [4-(bis(4-fluorophenyl)(hydroxy)methyl)-N-(7-(hydroxyamino)-7-oxoheptyl)benzamide], 3 nM.
Take `CC(C)c1cccc(C(C)C)c1N(C)c1ccc(C(=O)NCCCCCCC(=O)NO)cc1` [4-((2,6-diisopropylphenyl)(methyl)amino)-N-(7-(hydroxyamino)-7-oxoheptyl)benzamide]: the concentration for half-maximal inhibition (IC50) was determined as 45 nM.
With `O=C(CCCCCCNC(=O)c1ccc(N(c2ccccc2)c2ncccn2)cc1)NO` [N-(7-(hydroxyamino)-7-oxoheptyl)-4-(phenyl(pyrimidin-2-yl)amino)benzamide], the IC50 is 3 nM.

For the origin of these results see patent publication US8609678B2, “Reverse amide compounds as protein deacetylase inhibitors and methods of use thereof” (Acetylon Pharmaceuticals, priority 2010, dated 2013).
